The chains behind the UniProt entries cited, without tags or fusion partners.
UniProt P41594, whole entry, looked up: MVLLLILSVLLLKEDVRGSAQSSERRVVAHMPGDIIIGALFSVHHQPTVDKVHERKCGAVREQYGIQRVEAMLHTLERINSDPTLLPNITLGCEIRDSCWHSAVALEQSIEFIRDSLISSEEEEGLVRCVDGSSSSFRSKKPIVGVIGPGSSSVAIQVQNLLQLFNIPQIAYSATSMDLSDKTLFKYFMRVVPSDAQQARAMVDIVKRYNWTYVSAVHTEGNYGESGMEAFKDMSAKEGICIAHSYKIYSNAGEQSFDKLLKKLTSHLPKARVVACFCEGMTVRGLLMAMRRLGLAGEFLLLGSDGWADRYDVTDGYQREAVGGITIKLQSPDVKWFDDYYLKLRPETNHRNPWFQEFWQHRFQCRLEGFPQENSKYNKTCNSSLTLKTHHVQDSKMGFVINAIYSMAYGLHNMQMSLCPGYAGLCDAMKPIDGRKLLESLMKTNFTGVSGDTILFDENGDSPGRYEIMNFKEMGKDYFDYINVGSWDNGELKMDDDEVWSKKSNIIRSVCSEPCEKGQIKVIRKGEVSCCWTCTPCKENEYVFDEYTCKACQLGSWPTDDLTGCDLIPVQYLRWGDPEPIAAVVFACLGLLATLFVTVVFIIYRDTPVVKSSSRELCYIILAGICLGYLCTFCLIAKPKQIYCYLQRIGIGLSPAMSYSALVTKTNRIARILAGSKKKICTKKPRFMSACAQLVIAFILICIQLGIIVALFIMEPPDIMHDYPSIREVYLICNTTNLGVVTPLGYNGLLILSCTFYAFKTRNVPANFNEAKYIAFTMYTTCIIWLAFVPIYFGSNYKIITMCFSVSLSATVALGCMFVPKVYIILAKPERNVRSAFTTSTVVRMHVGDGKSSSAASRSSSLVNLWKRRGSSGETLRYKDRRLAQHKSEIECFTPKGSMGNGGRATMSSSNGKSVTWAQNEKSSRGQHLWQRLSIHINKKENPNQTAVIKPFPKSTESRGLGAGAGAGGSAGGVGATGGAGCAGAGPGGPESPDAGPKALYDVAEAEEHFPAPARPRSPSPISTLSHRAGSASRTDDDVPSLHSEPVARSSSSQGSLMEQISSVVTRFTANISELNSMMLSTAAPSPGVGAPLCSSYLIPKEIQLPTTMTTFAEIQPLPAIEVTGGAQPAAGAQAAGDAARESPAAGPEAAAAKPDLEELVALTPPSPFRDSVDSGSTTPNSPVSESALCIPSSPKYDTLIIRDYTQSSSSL
UniProt P31424, whole entry, looked up: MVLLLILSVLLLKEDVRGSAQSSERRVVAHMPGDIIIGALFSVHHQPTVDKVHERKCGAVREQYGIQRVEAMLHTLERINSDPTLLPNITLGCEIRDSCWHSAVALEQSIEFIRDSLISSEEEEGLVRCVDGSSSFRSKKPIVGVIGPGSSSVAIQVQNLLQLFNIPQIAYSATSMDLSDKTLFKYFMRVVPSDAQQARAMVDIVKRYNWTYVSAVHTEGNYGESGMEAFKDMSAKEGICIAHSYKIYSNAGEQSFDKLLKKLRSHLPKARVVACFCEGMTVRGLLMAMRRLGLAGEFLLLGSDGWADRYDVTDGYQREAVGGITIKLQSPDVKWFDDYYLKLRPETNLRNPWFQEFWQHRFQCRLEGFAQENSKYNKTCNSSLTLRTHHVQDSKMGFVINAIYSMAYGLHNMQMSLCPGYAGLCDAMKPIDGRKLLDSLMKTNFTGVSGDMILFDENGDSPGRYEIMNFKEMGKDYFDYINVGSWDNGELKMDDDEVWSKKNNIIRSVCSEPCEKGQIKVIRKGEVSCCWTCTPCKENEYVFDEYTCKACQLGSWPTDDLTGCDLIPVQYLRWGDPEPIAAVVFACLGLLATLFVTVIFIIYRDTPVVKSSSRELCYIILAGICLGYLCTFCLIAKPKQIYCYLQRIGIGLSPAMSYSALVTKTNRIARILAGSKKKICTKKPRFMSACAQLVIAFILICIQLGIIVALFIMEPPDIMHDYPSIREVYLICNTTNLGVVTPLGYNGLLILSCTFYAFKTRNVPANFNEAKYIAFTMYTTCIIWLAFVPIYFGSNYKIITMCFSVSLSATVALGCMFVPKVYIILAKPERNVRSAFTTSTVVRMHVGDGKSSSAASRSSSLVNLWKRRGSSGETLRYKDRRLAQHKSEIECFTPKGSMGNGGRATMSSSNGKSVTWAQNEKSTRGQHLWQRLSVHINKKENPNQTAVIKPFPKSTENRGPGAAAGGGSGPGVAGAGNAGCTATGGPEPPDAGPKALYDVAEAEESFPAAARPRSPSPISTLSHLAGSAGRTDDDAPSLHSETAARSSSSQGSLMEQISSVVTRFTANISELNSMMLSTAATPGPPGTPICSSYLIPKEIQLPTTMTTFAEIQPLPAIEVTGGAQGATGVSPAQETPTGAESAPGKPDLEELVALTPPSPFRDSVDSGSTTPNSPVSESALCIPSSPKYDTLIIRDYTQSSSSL

In ChEMBL document CHEMBL3632544, “Acyl dihydropyrazolo[1,5-a]pyrimidinones as metabotropic glutamate receptor 5 positive allosteric modulators” (Bioorg Med Chem Lett, 2015):

How the values were obtained:
[1] = molecular target: Metabotropic glutamate receptor 5 (Homo sapiens, UniProt P41594); assay: Positive allosteric modulation of human mGlu5 expressed in HEK293 cells assessed as maximal calcium mobilization response at 10 uM relative to control; format: functional, cell-based
[2] = molecular target: Metabotropic glutamate receptor 5 (Rattus norvegicus) (UniProt P31424); assay: Positive allosteric modulation of rat mGlu5 assessed as maximal calcium mobilization response at 10 uM by cell-based assay relative to control; format: functional

## CC(=O)N1CCCn2nc(COc3ccccc3)cc21
[1]
  fold change (FC): 5
[2]
  fold change (FC): 4.2
